Assay results reported in paper PMC9144537, “Pharmacokinetics, Prostate Distribution and Metabolic Characteristics of Four Representative Flavones after Oral Administration of the Aerial Part of Glycyrrhiza uralensis in Rats” (Molecules, 2022).

Assay: Qualitative detection of prototype flavones and metabolites in rat plasma, prostate, urine and feces by UPLC-Q-Exactive Orbitrap-MS after oral aerial part of G. uralensis
Settings: rats, single oral 1 g/kg extract, + not defined (detected)

methyl-daidzein-glucoside [1-M2]
Distribution of four representative flavonoids and metabolites: Plasma: detected
